Legend:
CB2 receptor = target: T1, CB2 receptor (Homo sapiens, UniProt P34972); experiment: cAMP assay (HitHunter) in CHO-K1-CB2 cells, agonist and antagonist modes; assay type: cell-based; conditions: agonist or antagonist mode; antagonist mode against CP-55940 at EC90
T1 construct: host or cells: CHO-K1-CB2

Chains of the proteins cited; added tags and fusions are not shown.
UniProt P34972, whole entry: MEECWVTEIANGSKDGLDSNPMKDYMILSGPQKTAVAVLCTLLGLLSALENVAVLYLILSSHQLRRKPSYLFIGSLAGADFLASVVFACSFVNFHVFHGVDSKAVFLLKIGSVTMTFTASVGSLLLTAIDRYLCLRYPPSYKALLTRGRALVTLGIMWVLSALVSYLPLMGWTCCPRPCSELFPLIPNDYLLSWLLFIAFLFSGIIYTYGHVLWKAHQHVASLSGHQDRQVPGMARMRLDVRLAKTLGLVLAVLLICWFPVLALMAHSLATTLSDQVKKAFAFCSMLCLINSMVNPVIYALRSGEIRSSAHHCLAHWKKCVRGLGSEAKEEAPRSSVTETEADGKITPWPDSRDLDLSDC

CB2 receptors = conditions: range over various ligand binding studies; read-out: binding constant (Ki) for CB2 receptors; cited from earlier work

C=C(C)[C@@H]1CCC(C)=C[C@H]1c1c(O)cc(CCCCC)cc1O [CBD, cannabidiol]
EC50 (CB2 receptor): 7 ± 2 µM
Ki (CB2 receptors): 2.4 to 10 µM

From article PMC6757234, “Extractions of Medical Cannabis Cultivars and the Role of Decarboxylation in Optimal Receptor Responses” (Cannabis and Cannabinoid Research, 2019)
